Measurements reported in BindingDB's records for PubMed 9536032 (Sibia Neurosciences, 1998).

Protein sequences, listed by entry. Tags and fused reporters are not part of them. Lines headed by an entry give the natural chain unless they say otherwise; changes in a name come on top.
UniProt P19492: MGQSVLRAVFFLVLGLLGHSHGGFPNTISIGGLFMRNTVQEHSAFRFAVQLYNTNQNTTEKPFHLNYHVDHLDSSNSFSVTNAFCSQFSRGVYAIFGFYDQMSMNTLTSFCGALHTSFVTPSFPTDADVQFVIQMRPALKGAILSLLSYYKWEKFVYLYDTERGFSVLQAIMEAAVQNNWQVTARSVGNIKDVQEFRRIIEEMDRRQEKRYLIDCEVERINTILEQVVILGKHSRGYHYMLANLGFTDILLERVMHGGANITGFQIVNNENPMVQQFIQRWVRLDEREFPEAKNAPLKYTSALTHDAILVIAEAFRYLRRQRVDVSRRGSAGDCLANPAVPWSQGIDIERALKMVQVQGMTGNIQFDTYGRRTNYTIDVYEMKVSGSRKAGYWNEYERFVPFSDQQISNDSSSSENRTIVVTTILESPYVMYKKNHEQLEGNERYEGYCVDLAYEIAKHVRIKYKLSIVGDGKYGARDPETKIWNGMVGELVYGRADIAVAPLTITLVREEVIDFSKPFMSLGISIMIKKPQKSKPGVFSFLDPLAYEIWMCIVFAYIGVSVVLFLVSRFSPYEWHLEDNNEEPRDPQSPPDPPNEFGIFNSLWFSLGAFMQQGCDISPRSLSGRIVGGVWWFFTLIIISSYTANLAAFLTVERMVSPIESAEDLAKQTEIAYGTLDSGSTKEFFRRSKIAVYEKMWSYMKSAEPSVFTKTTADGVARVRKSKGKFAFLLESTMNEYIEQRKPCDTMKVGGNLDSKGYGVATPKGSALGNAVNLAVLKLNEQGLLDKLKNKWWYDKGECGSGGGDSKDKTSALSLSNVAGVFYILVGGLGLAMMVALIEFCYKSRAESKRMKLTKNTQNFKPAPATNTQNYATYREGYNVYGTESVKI

Target: Glutamate receptor 3 (Rattus norvegicus, UniProt P19492)

SMILES | Ki
Cc1onc(O)c1CC(N)C(=O)O (stereo not drawn) [(RS)-2-amino-3-(3-hydroxy-5-methylisoxazol-4-yl)-propionicacid] | 0.017 µM
Cc1onc(O)c1C[C@H](N)C(=O)O [glutamate-AMPA] | 0.014 µM
